PubChem BioAssay (NCI)
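How tested: cells in 96-well plates exposed to compound for 48 hours at five concentrations. GI50: concentration for 50% inhibition of growth. TGI marks complete inhibition of growth.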

Tests used:
Test in all cases: growth of human tumour cells (NCI), 48 h
A498 renal = test system: A498 renal
ACHN renal = test system: ACHN renal
HOP-92 NSCLC = test system: HOP-92 NSCLC
OVCAR-5 ovarian = test system: OVCAR-5 ovarian
NCI-H322M lung = test system: NCI-H322M lung
NCI-H226 lung = test system: NCI-H226 lung
DU-145 prostate = test system: DU-145 prostate
PC-3 prostate = test system: PC-3 prostate
U251 CNS = test system: U251 CNS
CAKI-1 renal = test system: CAKI-1 renal
OVCAR-8 ovarian = test system: OVCAR-8 ovarian
SK-MEL-28 melanoma = test system: SK-MEL-28 melanoma
HCT-15 colon = test system: HCT-15 colon
SN12C renal = test system: SN12C renal
SK-OV-3 ovarian = test system: SK-OV-3 ovarian
MCF7 breast = test system: MCF7 breast
SF-539 CNS = test system: SF-539 CNS
SW-620 colon = test system: SW-620 colon
M14 melanoma = test system: M14 melanoma
MDA-MB-435 = test system: MDA-MB-435
KM12 colon = test system: KM12 colon
NCI-H460 lung = test system: NCI-H460 lung
K-562 leukemia = test system: K-562 leukemia
IGROV1 ovarian = test system: IGROV1 ovarian
OVCAR-3 ovarian = test system: OVCAR-3 ovarian
SNB-19 CNS = test system: SNB-19 CNS
HL-60(TB) leukemia = test system: HL-60(TB) leukemia
SK-MEL-5 melanoma = test system: SK-MEL-5 melanoma
MDA-MB-231 breast = test system: MDA-MB-231 breast
786-0 renal = test system: 786-0 renal
A549 NSCLC = test system: A549 NSCLC
OVCAR-4 ovarian = test system: OVCAR-4 ovarian
SNB-75 CNS = test system: SNB-75 CNS
LOX IMVI melanoma = test system: LOX IMVI melanoma
SR leukemia = test system: SR leukemia
RXF 393 renal = test system: RXF 393 renal
HCT-116 colon = test system: HCT-116 colon
UACC-257 melanoma = test system: UACC-257 melanoma
MOLT-4 leukemia = test system: MOLT-4 leukemia
HT29 colon = test system: HT29 colon
MDA-N = test system: MDA-N
COLO 205 colon = test system: COLO 205 colon
EKVX NSCLC = test system: EKVX NSCLC
NCI/ADR-RES ovarian = test system: NCI/ADR-RES ovarian
UACC-62 melanoma = test system: UACC-62 melanoma
UO-31 renal = test system: UO-31 renal
CCRF-CEM leukemia = test system: CCRF-CEM leukemia
SF-295 CNS = test system: SF-295 CNS
TK-10 renal = test system: TK-10 renal
SK-MEL-2 melanoma = test system: SK-MEL-2 melanoma

O=[N+]([O-])c1nc(-c2nc([N+](=O)[O-])c([N+](=O)[O-])[nH]2)[nH]c1[N+](=O)[O-]
GI50 (A498 renal): > 100 µM
TGI (A498 renal): > 100 µM
GI50 (ACHN renal): > 100 µM
TGI (ACHN renal): > 100 µM
GI50 (HOP-92 NSCLC): > 100 µM
TGI (HOP-92 NSCLC): > 100 µM
GI50 (OVCAR-5 ovarian): > 100 µM
TGI (OVCAR-5 ovarian): > 100 µM
GI50 (NCI-H322M lung): > 100 µM
TGI (NCI-H322M lung): > 100 µM
GI50 (NCI-H226 lung): > 100 µM
TGI (NCI-H226 lung): > 100 µM
GI50 (DU-145 prostate): > 100 µM
TGI (DU-145 prostate): > 100 µM
GI50 (PC-3 prostate): > 100 µM
TGI (PC-3 prostate): > 100 µM
GI50 (U251 CNS): > 100 µM
TGI (U251 CNS): > 100 µM
GI50 (CAKI-1 renal): > 100 µM
TGI (CAKI-1 renal): > 100 µM
GI50 (OVCAR-8 ovarian): > 100 µM
TGI (OVCAR-8 ovarian): > 100 µM
GI50 (SK-MEL-28 melanoma): > 100 µM
TGI (SK-MEL-28 melanoma): > 100 µM
GI50 (HCT-15 colon): > 100 µM
TGI (HCT-15 colon): > 100 µM
GI50 (SN12C renal): > 100 µM
TGI (SN12C renal): > 100 µM
GI50 (SK-OV-3 ovarian): > 100 µM
TGI (SK-OV-3 ovarian): > 100 µM
GI50 (MCF7 breast): > 100 µM
TGI (MCF7 breast): > 100 µM
GI50 (SF-539 CNS): > 100 µM
TGI (SF-539 CNS): > 100 µM
GI50 (SW-620 colon): > 100 µM
TGI (SW-620 colon): > 100 µM
GI50 (M14 melanoma): > 100 µM
TGI (M14 melanoma): > 100 µM
GI50 (MDA-MB-435): > 100 µM
TGI (MDA-MB-435): > 100 µM
GI50 (KM12 colon): > 100 µM
TGI (KM12 colon): > 100 µM
GI50 (NCI-H460 lung): > 100 µM
TGI (NCI-H460 lung): > 100 µM
GI50 (K-562 leukemia): > 100 µM
TGI (K-562 leukemia): > 100 µM
GI50 (IGROV1 ovarian): > 100 µM
TGI (IGROV1 ovarian): > 100 µM
GI50 (OVCAR-3 ovarian): > 100 µM
TGI (OVCAR-3 ovarian): > 100 µM
GI50 (SNB-19 CNS): > 100 µM
TGI (SNB-19 CNS): > 100 µM
GI50 (HL-60(TB) leukemia): > 100 µM
TGI (HL-60(TB) leukemia): > 100 µM
GI50 (SK-MEL-5 melanoma): > 100 µM
TGI (SK-MEL-5 melanoma): > 100 µM
GI50 (MDA-MB-231 breast): > 100 µM
TGI (MDA-MB-231 breast): > 100 µM
GI50 (786-0 renal): > 100 µM
TGI (786-0 renal): > 100 µM
GI50 (A549 NSCLC): > 100 µM
TGI (A549 NSCLC): > 100 µM
GI50 (OVCAR-4 ovarian): > 100 µM
TGI (OVCAR-4 ovarian): > 100 µM
GI50 (SNB-75 CNS): > 100 µM
TGI (SNB-75 CNS): > 100 µM
GI50 (LOX IMVI melanoma): > 100 µM
TGI (LOX IMVI melanoma): > 100 µM
GI50 (SR leukemia): > 100 µM
TGI (SR leukemia): > 100 µM
GI50 (RXF 393 renal): > 100 µM
TGI (RXF 393 renal): > 100 µM
GI50 (HCT-116 colon): > 100 µM
TGI (HCT-116 colon): > 100 µM
GI50 (UACC-257 melanoma): > 100 µM
TGI (UACC-257 melanoma): > 100 µM
GI50 (MOLT-4 leukemia): > 100 µM
TGI (MOLT-4 leukemia): > 100 µM
GI50 (HT29 colon): > 100 µM
TGI (HT29 colon): > 100 µM
GI50 (MDA-N): > 100 µM
TGI (MDA-N): > 100 µM
GI50 (COLO 205 colon): > 100 µM
TGI (COLO 205 colon): > 100 µM
GI50 (EKVX NSCLC): > 100 µM
TGI (EKVX NSCLC): > 100 µM
GI50 (NCI/ADR-RES ovarian): > 100 µM
TGI (NCI/ADR-RES ovarian): > 100 µM
GI50 (UACC-62 melanoma): > 100 µM
TGI (UACC-62 melanoma): > 100 µM
GI50 (UO-31 renal): > 100 µM
TGI (UO-31 renal): > 100 µM
GI50 (CCRF-CEM leukemia): > 100 µM
TGI (CCRF-CEM leukemia): > 100 µM
GI50 (SF-295 CNS): > 100 µM
TGI (SF-295 CNS): > 100 µM
GI50 (TK-10 renal): > 100 µM
TGI (TK-10 renal): > 100 µM
GI50 (SK-MEL-2 melanoma): > 100 µM
TGI (SK-MEL-2 melanoma): > 100 µM
